Only some compounds are listed: those with a hit (about 16% of all), similar ones and a draw of the others.
uPA generation – cell surface uPA generation inhibition | cell surface uPA generation assay, qHTS | Potency, µM (top dose mostly 38.3 µM), inactives show at the top dose activity change, negative = inhibition, most hits filed as inhibitors | hit rate 0.31% among 330,000 | AID 540303; active = well fitted inhibition curve with a large enough effect; inconclusive = small, poorly fitted or top-dose-only effect; inactive = no such curve, though single readings can be large or run the other way; tested in mouse RAW 264.7 cells; also: potency is read from the fitted curve at half-maximal effect; % is scaled to controls: 0 for no effect and ±100 for the full control effect; nearly all actives have a fitted effect of over 55% in size
DT40 TDP1 CPT – DT40-hTDP1 cell growth loss with CPT; chicken DT40 Tdp1-/-;hTDP1 cells + 20 nM CPT, ATP luminescence, 48 h; Potency, µM (doses to about 46.2 µM), without a hit: at the highest dose activity change, negative = growth inhibition, usual class: inhibitors; AID 686979; hit rate 12% among 420,000; also: potency is read from the fitted curve at half-maximal effect; % is scaled to controls: 0 for no effect and ±100 for the full control effect; nearly all actives have a fitted effect of over 55% in size
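Cell growth measured by CellTiter-Glo luminescence after a minimum 48 h, 37 C compound exposure with 20 nM CPT in Tdp1-knockout DT40 cells stably expressing hTDP1, seeded 400/well; qHTS titration format.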
TDP1 cell noCPT – qHTS for Inhibitors of human tyrosyl-DNA phosphodiesterase 1 (TDP1): qHTS in cells in absence of CPT; DT40 Tdp1-/- hTDP1 cells, no CPT, ATP luminescence, 48 h; Potency, µM (series often up to 46.2 µM), without a hit: top-dose activity change, negative = growth inhibition, actives largely listed as inhibitors; hit rate 15% among 420,000; also: potency is read from the fitted curve at half-maximal effect; % is scaled to controls: 0 for no effect and ±100 for the full control effect; nearly all actives have a fitted effect of over 55% in size
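Chicken DT40 Tdp1-/- cells stably complemented with human TDP1 were seeded at 400 cells/well with DMSO in place of 20 nM camptothecin. After compound pinning, cells grew at least 48 hr at 37 °C; viability read by CellTiter-Glo luminescence.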
TDP1 block – inhibitors of human tyrosyl-DNA phosphodiesterase TDP1; recombinant TDP1, AlphaScreen DNA substrate cleavage; hit rate 0.28% among 350,000; Potency, µM (series often up to 130 µM), inactives show top-dose activity change, negative = inhibition, most hits filed as inhibitors; Q9NUW8; also: potency is read from the fitted curve at half-maximal effect; % is scaled to controls: 0 for no effect and ±100 for the full control effect; nearly all actives have a fitted effect of over 40% in size
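Enzyme-compound mixtures sat 15 min at room temperature, followed by a 5 min reaction with 15 nM final substrate and 10 min with AlphaScreen beads. Recombinant human Tdp1 was used at 1 nM final.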
miR-21 reporter – miR-21 reporter, rising signal; HeLa miR-21 FLuc reporter, luciferase, 48 h; Potency, µM (doses to about 38.3 µM), for inactives: at the highest dose reporter change, positive = more light; 340,000 tested, under 10 active; AID 2288; active = well fitted rising curve with a large enough effect; inconclusive = small, poorly fitted or top-dose-only effect; inactive = no such curve, though single readings can be large or run the other way;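 further: % of control where 0% means no effect; miR-21 action dims this reporter so a rising signal means less miR-21 action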
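HeLa cells endogenously expressing miR-21, stably carrying CMV-driven firefly luciferase with a downstream miR-21 binding site, 2000 cells/well. Titrations up to approximately 40 uM, 48 hours; luciferase luminescence read.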
* marks the source's active call; other numbers are inactive results; ? = inconclusive; / = no result given; [ ] = remark or other dose. Unless noted, calls follow the shape of the dose curve; as a rule, active = well fitted curve in the direction sought with a large enough effect; inconclusive = small, poorly fitted or top-dose-only effect, or another doubt; inactive = no such curve, though single readings can be large; an effect the other way counts as inactive or inconclusive.

| canonical_smiles | uPA generation | DT40 TDP1 CPT | TDP1 cell noCPT | TDP1 block | miR-21 reporter |
| --- | --- | --- | --- | --- | --- |
| Cc1nc(-c2ccc(S(=O)(=O)N3CCN(c4ccccc4)CC3)cc2)co1 | 0% | -23% | ? | 2% | 0% |
| COc1cccc(N2CCN(S(=O)(=O)c3cc4c(cc3C)N(C)CCO4)CC2)c1 | -16% | ? | 16µM* | / | 3% |
| Oc1ccc2c(c1)oc1cc(O)ccc12 | ? | ? | ? | 1% | -31% |
| COc1ccc(S(=O)(=O)N2CCN(CC(=O)Nc3ccc(Cl)c(C(F)(F)F)c3)CC2)cc1 | / | 9.2µM* | 8.2µM* | -5% | ? |
| COc1cccc(N2CCN(CC(=O)Nc3ccc(S(=O)(=O)N4CCCCCC4)cc3)CC2)c1 | -4% | ? | 13µM* | 3% | / |
| O=C(CN1CCN(S(=O)(=O)c2ccccc2)CC1)Nc1ccc2c(c1)CCC2 | -17% | ? | 15µM* | -7% | -2% |
| Cc1ccc(S(=O)(=O)N2CCN(CC(=O)NC3CCCc4ccccc43)CC2)cc1C (stereo unspecified) | 1% | ? | 18µM* | 8% | 14% |
| COc1ccc(NC(=O)CN2CCN(S(=O)(=O)c3ccc(Cl)cc3)CC2)cc1 | -3% | -29% | ? | 9% | -4% |
| Cc1cc(N(C)C)cc(C)c1C=O | / | -7% | 0% | / | / |
| CCn1nc(C)c(Br)c1Nc1ccc(Br)cc1 | 2% | 0% | -14% | 2% | 19% |
| O=C(CN1CCN(S(=O)(=O)c2ccccc2)CC1)Nc1ccc([N+](=O)[O-])cc1 | -3% | 18µM* | 12µM* | 11% | 7% |
| O=C(CN1CCN(S(=O)(=O)c2ccccc2)CC1)Nc1ccc(Cl)c([N+](=O)[O-])c1 | -9% | 21µM* | 23µM* | / | / |
| COc1ccc(NC(=O)CN2CCN(S(=O)(=O)c3ccc(Cl)cc3)CC2)cc1Cl | -11% | -28% | ? | 3% | 1% |
| CCC1(C)Cc2nc3[nH]c(=S)n(-c4ccccc4C)c(=O)c3cc2CO1 (stereo unspecified) | -2% | 7% | -14% | 5% | 0% |
| COc1ccccc1-n1ncc2c(=O)[nH]c(SCC(=O)Nc3cccc(F)c3)nc21 | / | -5% | -25% | 2% | -9% |
| CC[C@]1(c2ncc[nH]2)Cc2ccccc2O1 | / | ? | 24µM* | 5% | / |
| Cc1c(-c2ccccc2Cl)nc2ccccc2c1C(=O)O | 4% | 0% | -1% | 9% | -10% |
| CC[C@H](C)N(C)C(=O)c1cc2ccccc2c(-c2ccccc2Cl)n1 | / | ? | 30µM* | -4%[56.1 µM] | / |
| OCCN(Cc1ccccc1)c1ncnc2sccc12 | -2% | ? | 13µM* | -11% | 8% |
| CN(Cc1cccs1)c1ncnc2sccc12 | -9% | ? | 16µM* | 2% | 3% |
| CN(Cc1ccccc1F)c1ncnc2sccc12 | -4% | ? | 21µM* | 1% | 1% |
| COc1ccc(CN(C)c2ncnc3sccc23)c(OC)c1OC | -25% | 12µM* | 21µM* | / | 18% |
| COc1ccccc1NC(=O)c1ccc(CN2C(=O)C(C)=C(c3ccc(C)c(C)c3)S2(=O)=O)cc1 | / | ? | ? | 3% | 0% |
| CC1=C(c2ccc(C)cc2)S(=O)(=O)N(Cc2ccc(C(=O)Nc3ccccc3C)cc2)C1=O | / | 7.3µM* | 8.2µM* | 8% | 28% |
| CC1=C(c2ccc(C)cc2)S(=O)(=O)N(Cc2ccc(C(=O)Nc3ccc(F)cc3C)cc2)C1=O | / | 5.8µM* | 5.2µM* | 8% | 4% |
| CCOc1ccc(NC(=O)c2ccc(CN3C(=O)C(C)=C(c4ccc(C)cc4)S3(=O)=O)cc2)cc1 | / | -10% | ? | 6% | 3% |
| CCc1ccc(NC(=O)c2ccc(CN3C(=O)C(C)=C(c4ccc(C)cc4)S3(=O)=O)cc2)cc1 | / | ? | 10µM* | 6% | -4% |
| O=C(COC(=O)Cn1cc(C(F)(F)F)ccc1=O)Nc1ccccc1 | -22% | -20% | -2% | 1% | / |
| CCN(CC)CCCN(C(=O)c1ccco1)c1nc(-c2ccc(Cl)cc2)cs1 | -9% | ? | ? | / | 3% |
| O=[N+]([O-])c1ccc(Nc2nccc(Cl)n2)cc1 | -2% | 8% | -29% | / | / |
| Cc1ccc(Cc2cnc(NC(=O)C3Cc4ccc(C)cc4C(=O)O3)s2)cc1 (stereo unspecified) | / | / | / | -4% | -3% |
| Cc1ccc(C(=O)Nc2ncc(Cc3ccc(SC(F)F)cc3)s2)cc1 | ? | 1.2µM* | 1.3µM* | 4% | 6% |
| FC(F)Sc1ccc(NC2=NCCCCC2)cc1 | 3% | 2% | -22% | / | -1% |
| FC(F)Sc1ccc(-n2cc(-c3ccc(Cl)cc3)[n+]3c2CCC3)cc1 | 2% | 9.2µM* | 8.2µM* | 8% | 25% |
| Clc1ccc(-n2cc(-c3ccc(Br)cc3)[n+]3c2CCCCC3)cc1 | ? | 5.8µM* | 6.5µM* | 3% | 17% |
| Cc1ccc(-c2cn(-c3ccc(SC(F)F)cc3)c3[n+]2CCC3)cc1 | -7% | 0.65µM* | 0.46µM* | -5% | ? |
| N#Cc1cccc(-c2cncnc2-n2ccnc2)c1 | / | 6% | 15% | / | / |
| O=C(NCCCN1CCOCC1)c1onc(CSc2ccc(F)c(F)c2)c1C(=O)NCCCN1CCOCC1 | 0% | -1% | -13% | / | / |
| O=[N+]([O-])c1cc2c(cc1C=Nc1ccccc1)OCO2 | 2% | ? | -29% | 4% | -3% |
| Cc1cc(O)c(N=Cc2cc3c(cc2[N+](=O)[O-])OCO3)cc1C | -18% | ? | 21µM* | / | / |

Compound profiles (already shown). Order of screens: uPA generation	DT40 TDP1 CPT	TDP1 cell noCPT	TDP1 block	miR-21 reporter
Cc1ccc(Cc2cnc(NC(=O)C3Cc4ccc(C)cc4C(=O)O3)s2)cc1 (stereo unspecified) is entered as /	/	/	-4%	-3%
Cc1ccc(-c2cn(-c3ccc(SC(F)F)cc3)c3[n+]2CCC3)cc1 is entered as -7%	0.65µM*	0.46µM*	-5%	?
Cc1cc(O)c(N=Cc2cc3c(cc2[N+](=O)[O-])OCO3)cc1C is entered as -18%	?	21µM*	/	/
FC(F)Sc1ccc(NC2=NCCCCC2)cc1 is entered as 3%	2%	-22%	/	-1%
N#Cc1cccc(-c2cncnc2-n2ccnc2)c1 is entered as /	6%	15%	/	/

The results go on:
| canonical_smiles | uPA generation | DT40 TDP1 CPT | TDP1 cell noCPT | TDP1 block | miR-21 reporter |
| --- | --- | --- | --- | --- | --- |
| Cc1cccc(-c2nnc(SCc3ccc(C#N)cc3)n2Cc2ccco2)c1 | / | ? | 23µM* | 4% | 11% |
| C=CCn1c(SCc2ccc(C(=O)Nc3ccccc3)cc2)nnc1-c1ccccc1 | / | 18µM* | ? | 8% | -12% |
| C=CCn1c(SCc2ccc(C#N)cc2)nnc1-c1ccc(C)cc1 | / | ? | 16µM* | -1% | 0% |
| FC(F)(F)COc1cc(-c2nnc(SCc3ccccc3)n2Cc2ccco2)cc(OCC(F)(F)F)n1 | -9% | ? | 29µM* | 0% | 11% |
| O=C(O)CCC(=O)N1N=C(c2ccccc2)CC1c1ccc2nccnc2c1 (stereo unspecified) | -2% | -2% | 6% | 0% | -11% |
| CC1CCCN(C(=O)c2cc3c(=O)n(C)c4ccccc4c3s2)C1 (stereo unspecified) | / | -4% | 0% | 2% | -7% |
| Cc1oc2cc3oc(=O)c(CCC(=O)NCc4ccccn4)c(C)c3cc2c1C | 12% | ? | -87% | / | -16% |
| CC1Cc2ccccc2N1C(=O)COC(=O)c1c2c(nc3ccccc13)CCCCC2 (stereo unspecified) | -6% | 8.2µM* | 12µM* | 3% | 18% |
| CC(C)(C)C(=O)COC(=O)c1c2c(nc3ccccc13)CCC2 | 0% | -3% | -25% | -8% | 4% |
| O=C(OCC(=O)N1CCc2ccccc21)c1c2c(nc3ccccc13)CCCC2 | -7% | 16µM* | 23µM* | 0% | 21% |
